Literature values as cited in US5840770A, “Method of killing tumor cells” (Hill Medical Corporation, priority 1997, dated 1998).

System: colon and kidney cancer and malignant melanoma
Settings: cited from earlier work

IL-2: produced by helper T cells
toxicity (amounts most helpful in dealing with the tumor): toxic in the amounts most helpful in dealing with the tumor | toxic effects (human, in vivo): malaise, fever, nausea or vomiting, diarrhea and anemia | patients showing at least some response (lymphocytes activated in vitro by IL-2 plus additional IL-2): About 20 % of the patients
